Test results reported in patent EP0632806B1 (priority 1992, dated 1993).

By UniProt entry, the sequences of proteins in these tests, tags left out.
UniProt P15389, whole entry, looked up: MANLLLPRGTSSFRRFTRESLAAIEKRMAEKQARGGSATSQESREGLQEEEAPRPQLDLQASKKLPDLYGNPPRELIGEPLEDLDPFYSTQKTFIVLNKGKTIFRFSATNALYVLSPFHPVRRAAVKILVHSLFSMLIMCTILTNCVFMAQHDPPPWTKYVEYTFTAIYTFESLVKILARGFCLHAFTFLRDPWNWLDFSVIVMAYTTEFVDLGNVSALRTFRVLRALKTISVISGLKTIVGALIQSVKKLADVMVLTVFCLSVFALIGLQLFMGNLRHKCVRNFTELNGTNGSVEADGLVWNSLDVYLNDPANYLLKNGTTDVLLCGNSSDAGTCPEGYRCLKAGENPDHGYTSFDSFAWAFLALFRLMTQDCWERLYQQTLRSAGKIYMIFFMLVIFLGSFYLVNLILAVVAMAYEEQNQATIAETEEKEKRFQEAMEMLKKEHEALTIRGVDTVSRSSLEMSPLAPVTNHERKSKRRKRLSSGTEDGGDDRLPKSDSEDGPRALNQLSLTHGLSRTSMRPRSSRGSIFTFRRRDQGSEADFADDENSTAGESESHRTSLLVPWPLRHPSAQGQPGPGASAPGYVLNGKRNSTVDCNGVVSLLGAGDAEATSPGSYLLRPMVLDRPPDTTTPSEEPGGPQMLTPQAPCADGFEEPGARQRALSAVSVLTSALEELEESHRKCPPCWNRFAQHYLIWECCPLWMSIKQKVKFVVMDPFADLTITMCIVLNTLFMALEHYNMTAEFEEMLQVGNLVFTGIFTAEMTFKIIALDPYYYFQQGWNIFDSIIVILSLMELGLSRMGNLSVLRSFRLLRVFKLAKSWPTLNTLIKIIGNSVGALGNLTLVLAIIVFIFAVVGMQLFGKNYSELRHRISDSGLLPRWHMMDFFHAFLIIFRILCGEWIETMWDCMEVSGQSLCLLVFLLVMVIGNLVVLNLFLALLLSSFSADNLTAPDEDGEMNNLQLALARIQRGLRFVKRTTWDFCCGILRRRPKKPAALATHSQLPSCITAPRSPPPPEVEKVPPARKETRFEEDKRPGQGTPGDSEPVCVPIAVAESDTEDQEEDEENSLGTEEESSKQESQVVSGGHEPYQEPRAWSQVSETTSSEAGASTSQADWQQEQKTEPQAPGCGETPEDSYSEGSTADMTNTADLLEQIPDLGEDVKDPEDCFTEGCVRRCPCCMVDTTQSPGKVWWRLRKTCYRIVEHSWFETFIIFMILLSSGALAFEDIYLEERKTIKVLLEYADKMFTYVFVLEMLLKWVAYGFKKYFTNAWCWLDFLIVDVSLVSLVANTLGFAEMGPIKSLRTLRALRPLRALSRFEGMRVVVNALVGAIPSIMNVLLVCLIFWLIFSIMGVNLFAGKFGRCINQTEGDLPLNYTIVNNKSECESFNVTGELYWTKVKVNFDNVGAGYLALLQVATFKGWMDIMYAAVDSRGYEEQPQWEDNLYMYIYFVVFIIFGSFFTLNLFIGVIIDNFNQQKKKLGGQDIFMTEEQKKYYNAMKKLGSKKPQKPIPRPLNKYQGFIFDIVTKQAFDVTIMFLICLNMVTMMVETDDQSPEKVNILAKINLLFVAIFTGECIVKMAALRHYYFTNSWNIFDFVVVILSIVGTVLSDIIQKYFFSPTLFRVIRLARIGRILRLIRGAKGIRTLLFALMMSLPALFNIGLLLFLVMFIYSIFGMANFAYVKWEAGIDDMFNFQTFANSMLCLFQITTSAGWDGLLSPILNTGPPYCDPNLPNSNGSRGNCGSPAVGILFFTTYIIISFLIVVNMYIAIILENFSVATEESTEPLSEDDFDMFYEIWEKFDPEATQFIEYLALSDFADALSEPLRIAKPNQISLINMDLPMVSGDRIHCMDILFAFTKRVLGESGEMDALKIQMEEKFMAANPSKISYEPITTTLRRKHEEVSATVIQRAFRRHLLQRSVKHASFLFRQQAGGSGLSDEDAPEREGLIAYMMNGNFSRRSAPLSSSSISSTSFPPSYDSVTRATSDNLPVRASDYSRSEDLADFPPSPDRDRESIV

Key:
cardiac sodium channel = cardiac sodium channel (Rattus norvegicus, UniProt P15389); assay: Whole cell voltage clamp, sodium current; details: read-out: EC20 Sodium current reduction; concentration required to produce a 20% change; single isolated adult rat cardiac cells; in the presence of naloxone
potassium current = assay: Whole cell voltage clamp, potassium current; details: read-out: EC20 potassium current blockade, isolated adult rat cardiac cells
guinea pig = assay: Intradermal wheal assay for local anaesthesia; details: intradermal injection of approximately 0.1 ml; absence of flinch upon pin prick
[1] = system: pentobarbital anaesthetized rats; assay: Blood pressure, heart rate and EKG effects before coronary artery occlusion; format: in vivo, rat; details: for ED20 EKG P-R interval increase / ED20 EKG Q-T interval increase / ED20 EKG QRS interval increase: dose required to produce a 20% change, anaesthetized rats; for time to maximum electrophysiological effect: effects occur very rapidly
[2] = system: pentobarbital anaesthetized rats subject to coronary artery occlusion; assay: Antiarrhythmic efficacy against coronary artery occlusion induced arrhythmias; format: in vivo, rat; details: control value 88%, initial results

SMILES | IC20 (cardiac sodium channel) [µM] | ED20 local anaesthesia (guinea pig) | ED20 EKG P-R interval increase [1] [µmol/kg] | ED20 EKG Q-T interval increase [1] [µmol/kg] | ED20 EKG QRS interval increase [1] [µmol/kg] | other results
CN(C(=O)Cc1cccc2sccc12)[C@@H]1CCCC[C@H]1N1CCCC1 | 2 |  |  |  |  | 
CN(C(=O)Cc1cccc2sccc12)[C@@H]1CCCC[C@H]1N1CCCC1 (racemic) | 4 | 0.3 percent (g/100 ml) |  |  |  | IC20 (potassium current): 100 µM
CN(C(=O)Cc1ccc(Cl)c(Cl)c1)[C@@H]1CCCC[C@H]1N1CCCC1 (relative stereo) |  | > 0.5 percent (g/100 ml) | 16 | 32 | 32 | 
CN(C(=O)Cc1cccc2occc12)[C@@H]1CC[C@]2(CCCO2)C[C@H]1N1CCCC1 |  |  | 10 | 32 | >32 | time to maximum electrophysiological effect [1]: one circulation time
CN(C(=O)Cc1cccc2occc12)[C@@H]1CCC2(CCCO2)C[C@H]1N1CCCC1 (mixture of isomers) | 13 |  |  |  |  | 
CN(C(=O)Cc1cccc2occc12)[C@H]1CC[C@@]2(CCCO2)C[C@@H]1N1CCCC1 | 10 | 0.5 percent (g/100 ml) | 16 | >32 | >32 | incidents of fatal arrhythmias (VF) ([2]; 2 µmol/kg): 25%; incidents of fatal arrhythmias (VF) ([2]; 8 µmol/kg): 0%; time to maximum electrophysiological effect [1]: one circulation time
CN(C(=O)Cc1csc2ccccc12)[C@@H]1CCCC[C@H]1N1CCCC1 (racemic) | 4 |  |  |  |  | 
